Columns and labels:
MOR = target: T1, MOR (Rattus norvegicus, UniProt P33535); assay: Radioligand competition binding with [3H]DAMGO
T1 construct: a: performed in rat whole brain membrane homogenates; from tissue; host or cells: Wistar rat whole brain membrane homogenate
Procedure: (§1) Tris-HCl, EGTA, NaCl, MgCl2 x 6H2O, GDP, the GTP analogue GTPγS, were purchased from Sigma-Aldrich (Budapest, Hungary). Fatty acid free bovine serum albumin (BSA) was purchased from Serva (Heidelberg, Germany). Naloxone was kindly provided by the company Endo Laboratories DuPont de Nemours (Wilmington, DE, USA). HS665 was provided by Schmidhammer’s group (University of Innsbruck, Austria). […]
(§2) purchased from Tocris Bioscience (Bristol, UK).
(§3) DMSO. All compounds were stored in 1 mM stock solution at -20 °C. The radiolabelled GTP analogue, [35S]GTPγS (specific activity: 1000 Ci/mmol) were purchased from Hartmann Analytic (Braunschweig, Germany). [3H]DAMGO (specific activity: 38.8 Ci/mmol),12 [3H]IleDelt II (specific activity: 19,6 Ci/mmol), [3H]WIN55,212-2 (specific activity: 13,1 Ci/mmol) and [3H]HS665 (specific activity: 36.62 Ci/mmol),3 were radiolabeled by the Laboratory of Chemical Biology group in BRC (Szeged, Hungary).
(§4) For membrane homogenate preparations male and female Wistar rats (250-300 g body weight) and male guinea pigs (~700 g body weight, LAL/HA/BR strain) were used. Rats were housed in the local animal house of BRC (Szeged, Hungary), while guinea pigs were housed in LAB-ÁLL Bt.
(§5) (Budapest, Hungary). […]
(§6) binding was determined in the absence of unlabeled compounds. […]

KOR = target: T2, KOR (Cavia porcellus, UniProt P41144); assay: Radioligand competition binding with [3H]HS665; set-up: species or system guinea pig
T2 construct: b: performed in guinea pig whole brain membrane homogenates; from tissue; host or cells: guinea pig (LAL/HA/BR strain) whole brain membrane homogenate
Procedure: as §1, §2, §3, §4, §5, §6

C[C@@H](NC(=O)[C@@H](N)Cc1ccc(O)cc1)C(=O)NCC(=O)N[C@@H](Cc1ccccc1)C(N)=O [Compound 10, Tyr-D-Ala-Gly-Phe-NH2, reference compound] was tested, and the “Selectivity ratio DOR/MOR” value (MOR) was 106.8, the “Selectivity ratio KOR/MOR” value (MOR) was 368.6 and the Ki (KOR) was 0.369 µM. For the same compound, the “Selectivity ratio DOR/KOR” value (KOR) was 0.28.
